# The entries are a selection whose mix differs from that of the whole data set. Inconclusive results are not listed. The source made the active and inactive calls. The call rests on the fitted dose curve; in most records, active means well fitted inhibition curve with a large enough effect; inconclusive means small, poorly fitted or top-dose-only effect, or another doubt; inactive means no such curve, though single readings can be large or run the other way.
# The chains behind the UniProt entries cited, without tags or fusion partners.
# UniProt Q92830, whole entry, looked up: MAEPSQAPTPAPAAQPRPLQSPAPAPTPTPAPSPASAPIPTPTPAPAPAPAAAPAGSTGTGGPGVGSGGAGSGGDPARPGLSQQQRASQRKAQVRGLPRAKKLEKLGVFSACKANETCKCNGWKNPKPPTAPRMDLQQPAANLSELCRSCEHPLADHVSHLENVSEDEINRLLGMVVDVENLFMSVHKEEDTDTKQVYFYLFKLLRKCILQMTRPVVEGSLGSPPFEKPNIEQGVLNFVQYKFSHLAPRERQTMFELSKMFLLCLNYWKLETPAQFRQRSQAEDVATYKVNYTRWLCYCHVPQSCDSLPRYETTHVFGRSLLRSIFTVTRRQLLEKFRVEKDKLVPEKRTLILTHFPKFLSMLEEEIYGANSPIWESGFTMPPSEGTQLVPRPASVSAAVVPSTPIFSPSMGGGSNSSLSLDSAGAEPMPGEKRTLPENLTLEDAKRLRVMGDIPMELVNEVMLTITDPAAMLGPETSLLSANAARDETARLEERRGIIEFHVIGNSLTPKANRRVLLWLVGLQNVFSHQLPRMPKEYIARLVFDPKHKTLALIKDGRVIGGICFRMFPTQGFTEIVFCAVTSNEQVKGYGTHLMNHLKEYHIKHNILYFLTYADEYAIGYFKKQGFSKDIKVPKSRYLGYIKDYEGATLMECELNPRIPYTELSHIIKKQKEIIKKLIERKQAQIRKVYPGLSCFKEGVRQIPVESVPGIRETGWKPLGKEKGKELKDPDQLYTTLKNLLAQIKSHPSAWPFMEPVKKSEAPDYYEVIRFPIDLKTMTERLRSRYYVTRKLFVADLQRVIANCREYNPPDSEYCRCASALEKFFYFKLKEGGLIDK
# Target: Histone acetyltransferase KAT2A (Homo sapiens) (UniProt Q92830)
# Test: qHTS Assay for Inhibitors of GCN5L2: Hit confirmation
# Conditions: GCN5L2 HAT, ThioGlo1 CoA fluorescence, 20 min
# Text: Histone acetyltransferase (HAT) enzymes transfer a […] group from acetyl-coenzyme A to the epsilon-amino group of conserved lysine residues of N-terminal histone tails. Acetylation results in charge neutralization of this positively charged amino acid, decreasing interactions with the […] backbone and making the DNA more accessible for transcription. HATs have been recognized as an emerging drug target for treatment of cancer, diabetes, asthma, chronic obstructive pulmonary disease, cardiac disease, and viral infection. […] A quantitative high throughput screen was developed to identify small molecule inhibitors. […] Yasgar, et al. Compound Management for Quantitative High-Throughput Screening. […] Inglese, et al. Quantitative high-throughput screening: a titration-based approach that efficiently identifies biological activities in large chemical libraries. […]
# To each well of a 1,536w plate, 3ul of GCN5L2 (final concentration 20nM, in 50mM HEPES, 0.1mM EDTA (pH 7.5), 0.01% Tween-20 buffer) are added using a Kalypsys dispenser. […] Plates are read immediately on the ViewLux (PerkinElmer) (Ex340nm/Em540nm) for a 0 min read, incubated for 20 min at room temperature, and read again on the ViewLux with the same settings. The initial read was carried out to identify compounds that are potentially fluorescent.
structure (smiles),measurement,value
O=P(Nc1nccs1)(c1ccccc1)c1nc2ccccc2s1 (stereo unspecified),Potency,active: 6.46 µM
